According to patent US9783573B2, “IAP antagonists” (BRISTOL-MYERS SQUIBB COMPANY, priority 2012, dated 2017):

Molecular target: His-BIR2 (124-240/C202A/C213G) (Homo sapiens (Human), UniProt P98170, C202A/C213G)
Conditions: read-out: XIAP-BIR2 AlphaScreen IC50, Biotinylated SMAC peptide

Compound	IC50 [nM]
CN[C@@H](C)C(=O)N[C@H](C(=O)N1Cc2cc(N(Cc3ccc(C(=O)N[C@H]4C[C@@H](C(=O)N[C@@H]5CCCc6ccccc65)N(C(=O)[C@@H](NC(=O)[C@H](C)NC)C(C)(C)C)C4)cc3)C(C)=O)ccc2C[C@H]1C(=O)N[C@@H]1CCCc2ccccc21)C(C)(C)C [Example 32, (S)-2-((S)-3,3-Dimethyl-2-((S)-2-(methylamino)propanamido)butanoyl)-7-(N-(4-(((3S,5S)-1-((S)-3,3-dimethyl-2-((S)-2-(methylamino)propanamido)butanoyl)-5-(((R)-1,2,3,4-tetrahydronaphthalen-1-yl)carbamoyl)pyrrolidin-3-yl)carbamoyl)benzyl)acetamido)-N—((R)-1,2,3,4-tetrahydronaphthalen-1-yl)-1,2,3,4-tetrahydroisoquinoline-3-carboxamide]	110
CN[C@@H](C)C(=O)N[C@H](C(=O)N1Cc2cc(NCc3ccc(C(=O)N[C@H]4C[C@@H](C(=O)N[C@@H]5CCCc6ccccc65)N(C(=O)[C@@H](NC(=O)[C@H](C)NC)C(C)(C)C)C4)cc3Cl)ccc2C[C@H]1C(=O)N[C@@H]1CCCc2ccccc21)C(C)(C)C [Example 33, (S)-7-((2-Chloro-4-(((3S,5S)-1-((S)-3,3-dimethyl-2-((S)-2-(methylamino)propanamido)butanoyl)-5-(((R)-1,2,3,4-tetrahydronaphthalen-1-yl)carbamoyl)pyrrolidin-3-yl)carbamoyl)benzyl)amino)-2-((S)-3,3-dimethyl-2-((S)-2-(methylamino)propanamido)butanoyl)-N—((R)-1,2,3,4-tetrahydronaphthalen-1-yl)-1,2,3,4-tetrahydroisoquinoline-3-carboxamide]	790
CCN[C@@H](C)C(=O)N[C@H](C(=O)N1Cc2cc(NC(=O)c3ccc(C(=O)N[C@H]4C[C@@H](C(=O)N[C@@H]5CCCc6ccccc65)N(C(=O)[C@@H](NC(=O)[C@H](C)NC)C(C)(C)C)C4)cc3)ccc2C[C@H]1C(=O)N[C@@H]1CCCc2ccccc21)C(C)(C)C [Example 34, N^1-((3S,5S)-1-((S)-3,3-dimethyl-2-((S)-2-(methylamino)propanamido)butanoyl)-5-(((R)-1,2,3,4-tetrahydronaphthalen-1-yl)carbamoyl)pyrrolidin-3-yl)-N^4-((S)-2-((S)-2-((S)-2-(ethylamino)propanamido)-3,3-dimethylbutanoyl)-3-(((R)-1,2,3,4-tetrahydronaphthalen-1-yl)carbamoyl)-1,2,3,4-tetrahydroisoquinolin-7-yl)terephthalamide]	410
CN[C@@H](C)C(=O)N[C@H](C(=O)N1C[C@@H](NC(=O)c2ccc(C(=O)Nc3ccc4c(c3)CN(C(=O)[C@@H](NC(=O)[C@@H](NC)C(C)C)C(C)(C)C)[C@H](C(=O)N[C@@H]3CCCc5ccccc53)C4)cc2)C[C@H]1C(=O)N[C@@H]1CCCc2ccccc21)C(C)(C)C [Example 35]	1400
CN[C@@H](C)C(=O)N[C@H](C(=O)[C@@H]1C[C@H](NC(=O)[C@@H](CCC(F)(F)F)[C@@H](CCC(F)(F)F)C(=O)Nc2ccc3c(c2)CN(C(=O)[C@@H](NC(=O)[C@H](C)NC)C(C)(C)C)[C@H](C(=O)N[C@@H]2CCCc4ccccc42)C3)CN1C(=O)N[C@@H]1CCCc2ccccc21)C(C)(C)C [Example 37, (2S,3R)-N^1-((3S,5S)-5-((S)-3,3-dimethyl-2-((S)-2-(methylamino)propanamido)butanoyl)-1-(((R)-1,2,3,4-tetrahydronaphthalen-1-yl)carbamoyl)pyrrolidin-3-yl)-N^4-((S)-2-((S)-3,3-dimethyl-2-((S)-2-(methylamino)propanamido)butanoyl)-3-(((R)-1,2,3,4-tetrahydronaphthalen-1-yl)carbamoyl)-1,2,3,4-tetrahydroisoquinolin-7-yl)-2,3-bis(3,3,3-trifluoropropyl) succinamide]	290
CCN[C@@H](C)C(=O)N[C@H](C(=O)N[C@H](C(=O)N1Cc2cc(OCc3ccc(C(=O)N[C@H]4C[C@@H](C(=O)N[C@@H]5CCCc6ccccc65)N(C(=O)[C@@H](NC(=O)[C@H](C)NC)C(C)(C)C)C4)cc3)ccc2C[C@H]1C(=O)N[C@@H]1CCCc2ccccc21)C(C)(C)C)C(C)(C)C [Example 40, (S)-7-((4-(((3S,5S)-1-((S)-3,3-Dimethyl-2-((S)-2-(methylamino)propanamido)butanoyl)-5-(((R)-1,2,3,4-tetrahydronaphthalen-1-yl)carbamoyl)pyrrolidin-3-yl)carbamoyl)benzyl)oxy)-2-((S)-2-((S)-2-((S)-2-(ethylamino)propanamido)-3,3-dimethylbutanamido)-3,3-dimethylbutanoyl)-N-((R)-1,2,3,4-tetrahydronaphthalen-1-yl)-1,2,3,4-tetrahydroisoquinoline-3-carboxamide]	2100
CN[C@@H](C)C(=O)N[C@H](C(=O)N1Cc2ccc(OCc3ccc(C(=O)N[C@H]4C[C@@H](C(=O)N[C@@H]5CCCc6ccccc65)N(C(=O)[C@@H](NC(=O)[C@H](C)NC)C(C)(C)C)C4)cc3)cc2C[C@H]1C(=O)N[C@@H]1CCCc2ccccc21)C(C)(C)C [Example 41, (S)-2-((S)-3,3-Dimethyl-2-((S)-2-(methylamino)propanamido)butanoyl)-6-((4-(((3S,5S)-1-((S)-3,3-dimethyl-2-((S)-2-(methylamino)propanamido)butanoyl)-5-(((R)-1,2,3,4-tetrahydronaphthalen-1-yl)carbamoyl)pyrrolidin-3-yl)carbamoyl)benzyl)oxy)-N-((R)-1,2,3,4-tetrahydronaphthalen-1-yl)-1,2,3,4-tetrahydroisoquinoline-3-carboxamide]	290
CN[C@@H](C)C(=O)N[C@H](C(=O)N1Cc2ccc(OCc3ccc(C(=O)N[C@H]4C[C@@H](C(=O)NC5CCCc6ccccc65)N(C(=O)[C@@H](NC(=O)[C@H](C)NC)C(C)(C)C)C4)cc3)cc2C[C@@H]1C(=O)NC1CCCc2ccccc21)C(C)(C)C (stereo partly drawn) [Example 42, (R)-2-((S)-3,3-Dimethyl-2-((S)-2-(methylamino)propanamido)butanoyl)-6-((4-(((3S,5S)-1-((S)-3,3-dimethyl-2-((5)-2-(methylamino)propanamido)butanoyl)-5-(((R)-1,2,3,4-tetrahydronaphthalen-1-yl)carbamoyl)pyrrolidin-3-yl)carbamoyl)benzyl)oxy)-N-((R)-1,2,3,4-tetrahydronaphthalen-1-yl)-1,2,3,4-tetrahydroisoquinoline-3-carboxamide]	1300
CC[C@H](NC)C(=O)N[C@H](C(=O)N1Cc2cc(OCc3ccc(C(=O)N[C@H]4C[C@@H](C(=O)N[C@@H]5CCCc6ccccc65)N(C(=O)[C@@H](NC(=O)[C@H](C)NC)C(C)(C)C)C4)cc3)ccc2C[C@H]1C(=O)N[C@@H]1CCCc2ccccc21)C(C)(C)C [Example 43]	700
CN[C@@H](C)C(=O)N[C@H](C(=O)N1Cc2cc(OC(=O)c3ccc(C(=O)N[C@H]4C[C@@H](C(=O)N[C@@H]5CCCc6ccccc65)N(C(=O)[C@@H](NC(=O)[C@H](C)NC)C(C)(C)C)C4)cc3)ccc2C[C@H]1C(=O)N[C@@H]1CCCc2ccccc21)C(C)(C)C [Example 46, (S)-2-((S)-3,3-Dimethyl-2-((S)-2-(methylamino)propanamido)butanoyl)-3-(((R)-1,2,3,4-tetrahydronaphthalen-1-yl)carbamoyl)-1,2,3,4-tetrahydroisoquinolin-7-yl 4-(((3S,5S)-1-((S)-3,3-dimethyl-2-((S)-2-(methylamino)propanamido)butanoyl)-5-(((R)-1,2,3,4-tetrahydronaphthalen-1-yl)carbamoyl)pyrrolidin-3-yl)carbamoyl)benzoate]	190
CN[C@@H](C)C(=O)N[C@H](C(=O)N1Cc2cc(NC(=O)c3ccc(CO[C@H]4C[C@@H](C(=O)N[C@@H]5CCCc6ccccc65)N(C(=O)[C@@H](NC(=O)[C@H](C)NC)C(C)(C)C)C4)cc3)ccc2C[C@H]1C(=O)N[C@@H]1CCCc2ccccc21)C(C)(C)C [Example 47, (S)-2-((S)-3,3-Dimethyl-2-((S)-2-(methylamino)propanamido)butanoyl)-7-(4-((((3S,5S)-1-((S)-3,3-dimethyl-2-((S)-2-(methylamino)propanamido)butanoyl)-5-(((R)-1,2,3,4-tetrahydronaphthalen-1-yl)carbamoyl)pyrrolidin-3-yl)oxy)methyl)benzamido)-N—((R)-1,2,3,4-tetrahydronaphthalen-1-yl)-1,2,3,4-tetrahydroisoquinoline-3-carboxamide]	130
CN[C@@H](C)C(=O)N[C@H](C(=O)N1Cc2cc(OC(=O)c3ccc(CO[C@H]4C[C@@H](C(=O)N[C@@H]5CCCc6ccccc65)N(C(=O)[C@@H](NC(=O)[C@H](C)NC)C(C)(C)C)C4)cc3)ccc2C[C@H]1C(=O)N[C@@H]1CCCc2ccccc21)C(C)(C)C [Example 48, (S)-2-((S)-3,3-Dimethyl-2-((S)-2-(methylamino)propanamido)butanoyl)-3-(((R)-1,2,3,4-tetrahydronaphthalen-1-yl)carbamoyl)-1,2,3,4-tetrahydroisoquinolin-7-yl 4-((((3S,5S)-1-((S)-3,3-dimethyl-2-((S)-2-(methylamino)propanamido)butanoyl)-5-(((R)-1,2,3,4-tetrahydronaphthalen-1-yl)carbamoyl)pyrrolidin-3-yl)oxy)methyl)benzoate]	500
CN[C@@H](C)C(=O)N[C@H](C(=O)N1Cc2cc(NC(=O)c3ccc(CO[C@H]4C[C@@H](C(=O)N[C@@H]5CCCc6ccccc65)N(C(=O)[C@@H](NC(=O)[C@H](C)NC)C(C)(C)C)C4)cc3)ccc2C[C@H]1C(=O)N[C@H](C)c1ccccc1F)C(C)(C)C [Example 50, (S)-2-((S)-3,3-Dimethyl-2-((S)-2-(methylamino)propanamido)butanoyl)-7-(4-((((3S,5S)-1-((S)-3,3-dimethyl-2-((S)-2-(methylamino)propanamido)butanoyl)-5-(((R)-1,2,3,4-tetrahydronaphthalen-1-yl)carbamoyl)pyrrolidin-3-yl)oxy)methyl)benzamido)-N-((R)-1-(2-fluorophenyl)ethyl)-1,2,3,4-tetrahydroisoquinoline-3-carboxamide]	610
